## scFv variants of Ab-14 (heavy chain) against a SARS-CoV-2 spike peptide

From the AlphaSeq antibody data of Li et al. 2023 (doi:10.1038/s41467-023-39022-2), copy in the FLAb collection.

Target peptide (SARS-CoV-2 spike, HR2 region): PDVDLGDISGINAS

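The variants were designed computationally from a first round of random CDR variants and then made and measured. Their group label is 14H_En_Gibbs (En: ensemble of fine-tuned language models; Gibbs: Gibbs sampling). In AlphaSeq, yeast of one mating type display the scFv and yeast of the other type display the target. The frequency of each diploid, read from paired DNA barcodes, reflects how well the two displayed proteins bind. The ratio of observed to expected reads was calibrated, replicate by replicate, on BCL2-family standards whose Kd was known from biolayer interferometry. Mating was done six times.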

Ab-14 is the parent antibody, in scFv form: VH, then the linker GGGGSGGGGSGGGGS, then VL. The light chain is unchanged in all variants.
VH: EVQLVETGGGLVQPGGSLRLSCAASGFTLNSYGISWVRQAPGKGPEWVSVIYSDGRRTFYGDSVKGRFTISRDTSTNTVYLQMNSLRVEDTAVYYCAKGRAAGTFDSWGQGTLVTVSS
VL: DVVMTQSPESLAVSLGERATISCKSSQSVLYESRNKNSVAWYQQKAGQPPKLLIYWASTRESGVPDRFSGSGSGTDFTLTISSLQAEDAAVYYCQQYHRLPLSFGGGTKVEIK

Each variant is given by its three heavy chain CDRs, as the data file delimits them; those of the parent are GFTLNSYGIS, VIYSDGRRTFYGDSVK, GRAAGTFDS. Values are log10 of the apparent Kd in nM; lower means stronger binding. Where no diploid with the target was found in that replicate, the entry reads "n.d.": below detection, most likely a poor binder, though not proof of it.

| # | CDR-H1 | CDR-H2 | CDR-H3 | log10 Kd (nM) by replicate | empty controls |
|---|---|---|---|---|---|
| 1 | GFDLDEYGVS | VIYADGMRMAYLNDVK | GQKGNVFFM | -0.82 -0.83 -0.90 -1.22 -1.58 -1.55 | 0/18 |
| 2 | GFDIQDYGIS | VIYADGSRTAYTNSVK | GVQGAFYGL | n.d. n.d. n.d. n.d. n.d. n.d. | 0/18 |
| 3 | GFNLDEFGIS | VIYADGMRTVYSQDVK | GQNVEFTVV | n.d. n.d. n.d. n.d. n.d. n.d. | 0/18 |
| 4 | GFDIEEYGIS | VIYADGVRTAYSQNFK | VGNTFALDI | n.d. n.d. n.d. n.d. n.d. n.d. | 0/18 |
| 5 | GEDLDEYGIS | VIYADGRKQSYSNAVK | GAVGGNFVQ | n.d. n.d. n.d. n.d. n.d. n.d. | 0/18 |
| 6 | GFNIDEYGIS | VIYADGMRTAYSNAVK | GNVNGGTFS | 1.09 n.d. n.d. n.d. n.d. n.d. | 0/18 |
| 7 | GFQLEDYGIS | VIYADGRRTAYAADVK | GQNNVVSGG | n.d. n.d. n.d. n.d. n.d. n.d. | 1/18 (2.70) |
| 8 | GGDLEEMGVS | VIYADGKRKAYKNKAK | GQTAGSFDV | n.d. n.d. n.d. n.d. n.d. n.d. | 1/18 (3.07) |
| 9 | GYDLQDYGIS | VIYADGVRVAYHQSVK | GQTAGIFLL | 0.04 n.d. -0.66 0.07 1.23 0.13 | 0/18 |
| 10 | GFDIESYGIS | VIYADGIRANYDQKVK | GTIAGTFVD | 1.51 2.68 1.17 0.59 1.12 1.13 | 0/18 |
| 11 | GFDLEEYGIS | VIYADGLRSYYDDNFK | GWNSGTIFV | n.d. n.d. n.d. n.d. n.d. n.d. | 0/18 |
| 12 | GFDLMNYGIS | VIYADGKRAAYIDDVK | GYSTGFLDV | n.d. n.d. n.d. n.d. n.d. n.d. | 0/18 |
| 13 | GKLIDEYGIS | VIYADGQRKAYQDNVK | GNVSSLGSV | n.d. n.d. n.d. n.d. n.d. n.d. | 0/18 |
| 14 | GFDLTEYGIS | VIYADGRRTQYQDAVK | GLNGDMIVV | n.d. n.d. n.d. n.d. n.d. n.d. | 0/18 |
| 15 | GQSLEEYGIS | VIYADGFRTQYKNSVK | GKNAFDITV | n.d. n.d. n.d. n.d. n.d. n.d. | 1/18 (1.56) |
| 16 | GFDLDEYGVS | VIYADGFRVAYAESVK | GLQQFGFTI | n.d. n.d. n.d. n.d. n.d. n.d. | 0/18 |
| 17 | GFELQEYGIS | VIYADGMRTAVSDNVK | GDNRGIFHM | n.d. n.d. n.d. n.d. n.d. n.d. | 0/18 |
| 18 | GFDINEYGVS | VIYADGMRTAYTDSVK | GEGQWINLI | n.d. n.d. n.d. n.d. n.d. n.d. | 0/18 |
| 19 | GFDLMEYGIS | VIYADGKRRAYENKVK | GGSVRSVVI | 0.19 0.10 0.35 -0.10 0.77 0.79 | 1/18 (2.20) |
| 20 | GFDINEYGVS | VIYADGKRMAYAWKVK | GKEAGTFIL | n.d. n.d. n.d. n.d. n.d. n.d. | 1/18 (1.71) |
| 21 | GFELTEYGIS | VIYADGHRSFVTDTVK | GQQAGIFNV | n.d. n.d. n.d. 1.32 n.d. n.d. | 0/18 |
| 22 | GKDIDEYGIS | VIYADGIRTFYIDRVK | GNLGGQFDM | n.d. n.d. n.d. n.d. n.d. n.d. | 0/18 |
| 23 | GFDLEDYGIS | VIYADGKRTQYAQKFK | GTIGGTFVD | n.d. 0.68 -0.16 n.d. n.d. 0.53 | 0/18 |
| 24 | GFDINEYGIS | VIYADGKKTAFANSVK | GEWAGTFDD | 1.83 1.44 1.82 0.81 3.00 1.70 | 0/18 |
| 25 | GFDIEEYGIS | VIYADGMRSSYSQSVK | GLYSGNIYV | n.d. n.d. n.d. n.d. n.d. n.d. | 0/18 |
| 26 | GDSLEEYGIS | VIYADGKRKAYKNKAK | GQTAGSFDV | n.d. n.d. n.d. 1.62 n.d. n.d. | 0/18 |
| 27 | GFDLNEYGIS | VIYADGQRVFYHDNVK | GQLNVVVNA | n.d. n.d. n.d. n.d. n.d. n.d. | 0/18 |
| 28 | GFDLEEFGIS | VIYADGTRTMYLPTVK | GVNGGTFQM | n.d. n.d. n.d. n.d. n.d. n.d. | 0/18 |
| 29 | GNDLEEYGIS | VIYADGMRTAAVDSVK | GDNSGTVVF | n.d. n.d. n.d. n.d. n.d. n.d. | 0/18 |
| 30 | EFDLNEYGIS | VIYADGHRSFYADHVK | GQVAGIFDM | 2.16 2.39 1.40 n.d. 1.91 2.00 | 1/18 (1.92) |
| 31 | GFDLQEYGIS | VIYADGKRSMYSNDVK | GEVGLGELI | n.d. n.d. 1.25 n.d. n.d. n.d. | 0/18 |
| 32 | GFDLQEYGIS | VIYADGVREAYANSFK | GQIAGTINS | 1.10 0.68 n.d. n.d. 0.66 2.21 | 0/18 |
| 33 | GFNLDEYGIS | VIYADGMRTQYKDQVK | GNLVAHNMT | n.d. n.d. n.d. n.d. n.d. 2.44 | 0/18 |
| 34 | GFDIEEYGIS | VIYADGVRTMYADDVK | GNSKNYSLM | 3.17 n.d. n.d. n.d. n.d. n.d. | 0/18 |
| 35 | GKALDEYGIS | VIYADGQRVFYSDTVK | GNQGFTVDV | n.d. n.d. n.d. n.d. n.d. n.d. | 0/18 |
| 36 | GFDLDQYGIS | VIYADGIRSVYADAVK | GHEGGIFLV | n.d. n.d. n.d. n.d. n.d. n.d. | 0/18 |
| 37 | GFGLMDYGIS | VIYADGKRRSYANSFK | GAHAGTFDF | n.d. 0.59 0.87 n.d. 1.70 n.d. | 1/18 (0.48) |

The first 4 entries again:

| CDR-H1 | CDR-H2 | CDR-H3 | log10 Kd (nM) by replicate | empty controls |
|---|---|---|---|---|
| GFDLDEYGVS | VIYADGMRMAYLNDVK | GQKGNVFFM | -0.82 -0.83 -0.90 -1.22 -1.58 -1.55 | 0/18 |
| GFDIQDYGIS | VIYADGSRTAYTNSVK | GVQGAFYGL | n.d. n.d. n.d. n.d. n.d. n.d. | 0/18 |
| GFNLDEFGIS | VIYADGMRTVYSQDVK | GQNVEFTVV | n.d. n.d. n.d. n.d. n.d. n.d. | 0/18 |
| GFDIEEYGIS | VIYADGVRTAYSQNFK | VGNTFALDI | n.d. n.d. n.d. n.d. n.d. n.d. | 0/18 |

The range of this assay differs from that of the first round, and the authors advise against merging the two. Of ten entries with the parent sequence, four were seen in most replicates (averages 0.34 to 2.37), three in one and three in none, so single entries are noisy. Three control strains display no target. For all heavy chain designs, 1% of the pairings with them gave a signal, with a median of 2.08 and one signal in twenty below 0.84, so weak values seen in few replicates may be background. For each scFv, signals with the empty controls are counted beside the result, with their mean in brackets. The authors averaged sequences with at least three values out of six and counted those with two or fewer as poor binders.